Data on one compound can be found in patent publication US20080118493A1, “Elevated Hedgehog Pathway Activity In Digestive System Tumors, And Methods Of Treating Digestive Sytem Tumors Having Elevated Hedgehog Pathway Activity” (priority 2003, published 2008).

The subject of test [1] is single passage pancreatic cancer xenograft cells. Briefly: Proliferation (MTS) assay in first passage pancreatic cancer xenograft cells. The note with it: 3.0 μM cyclopamine. The format is cell-based, human. The source says: Cells and tissues: Origins and sources of cells and tissues are described in the Table (below). First passage pancreatic cancer xenografts were derived from freshly harvested pancreaticoduodenectomy specimens as described^14. […] After reaching 25 mm in greatest dimension, xenograft tumors were harvested, minced, and plated into tissue culture vessels in RPMI, 20% Fetal Bovine Serum (FBS) for assays as described below. The diagnosis of frozen samples from gastric and pancreatic adenocarcinoma resections and adjacent normal stomach and pancreas was microscopically confirmed by two pathologists, and RNA was prepared as described^14.
For orientation: A xenograft is tissue or cells of one species grown in another, often human tumour cells in immunodeficient mice.

Another test concerns Hh pathway activity. As to the kind of experiment: Hh-responsive luciferase reporter assay in digestive tract tumor cell lines. The class given is cell-based, human. Conditions: cell lines producing detectable PTCH mRNA. As for the experimental part: Hh-responsive reporter assays: Hh-responsive firefly luciferase and control SV-40 Renilla luciferase reporter assays were performed on subconfluent triplicate cultures as described^22. Two days after transfection, cells were cultured for two days in assay media: RPMI-1640 (Bio-Whittaker; Walkersville Md.) supplemented with 0.5% (established cell lines) or 20% (first passage xenografts) fetal bovine serum (FBS) and containing combinations of 5E1 anti-Hh monoclonal antibody, recombinant doubly lipid modified Sonic hedgehog (ShhNp) peptide^12, cyclopamine purified from Veratrum extract, or tomatidine (ICN Pharmaceuticals; Costa Mesa Calif.) at the indicated concentrations.
For orientation: In a reporter assay the amount or activity of a reporter protein is the signal.

Consider `CC1=C2C[C@H]3[C@@H](CC=C4C[C@@H](O)CC[C@@]43C)[C@@H]2CC[C@]12O[C@@H]1C[C@H](C)CN[C@H]1[C@H]2C` [cyclopamine], for which the viable cell mass entry in test [1] (PTCH mRNA-expressing xenografts) is recorded as “decreased viable cell mass”. Moreover, the growth entry in test [1] (single passage xenografts lacking PTCH mRNA) was “grew equally well in control and cyclopamine containing media”. Besides, the “Hh pathway activity (Hh-inducible luciferase reporter)” value in the test with Hh pathway activity is recorded as “inhibited in a dose-dependent manner”.
